Measured values as given in patent publication US20250127912A1, “COMPOSITIONS FOR DELIVERY OF POLYNUCLEOTIDES” (miRecule, Inc., priority 2021, published 2025).

Assays:
[1] = system: luciferase reporter containing miR-30 target sites (UM-SCC-1^luc); test: Luciferase reporter knockdown assay in UM-SCC-1^luc cells; assay type: cell-based; conditions: Cetuximab conjugates DAR 1 or 4, +/- PolyR12; 50-12.5 nM (oligo), 5 days; RLU normalized to XTT and Control Oligo conjugate
[2] = Biodistribution of IR750-NCD5 cetuximab conjugates in mice with orthotopic UM-SCC-1^luc tumors; conditions: 5 mg/kg IR750-NCD5 cetuximab conjugate, N/P of 1; 24 and 48 hours

Substance: Cetuximab-miRNA Conjugate
- knockdown of luciferase reporter activity [1]: improves knockdown of a luciferase reporter
- delivery to the tumor (IR-750 fluorescence) [2]: improves delivery to tumor
